Chains of the proteins cited; added tags and fusions are not shown. A line that says so, or that is headed by a name, gives the form on record, which may keep a tag or linker.
UniProt Q9Y233, other isoform, or with tags, fused parts or gaps: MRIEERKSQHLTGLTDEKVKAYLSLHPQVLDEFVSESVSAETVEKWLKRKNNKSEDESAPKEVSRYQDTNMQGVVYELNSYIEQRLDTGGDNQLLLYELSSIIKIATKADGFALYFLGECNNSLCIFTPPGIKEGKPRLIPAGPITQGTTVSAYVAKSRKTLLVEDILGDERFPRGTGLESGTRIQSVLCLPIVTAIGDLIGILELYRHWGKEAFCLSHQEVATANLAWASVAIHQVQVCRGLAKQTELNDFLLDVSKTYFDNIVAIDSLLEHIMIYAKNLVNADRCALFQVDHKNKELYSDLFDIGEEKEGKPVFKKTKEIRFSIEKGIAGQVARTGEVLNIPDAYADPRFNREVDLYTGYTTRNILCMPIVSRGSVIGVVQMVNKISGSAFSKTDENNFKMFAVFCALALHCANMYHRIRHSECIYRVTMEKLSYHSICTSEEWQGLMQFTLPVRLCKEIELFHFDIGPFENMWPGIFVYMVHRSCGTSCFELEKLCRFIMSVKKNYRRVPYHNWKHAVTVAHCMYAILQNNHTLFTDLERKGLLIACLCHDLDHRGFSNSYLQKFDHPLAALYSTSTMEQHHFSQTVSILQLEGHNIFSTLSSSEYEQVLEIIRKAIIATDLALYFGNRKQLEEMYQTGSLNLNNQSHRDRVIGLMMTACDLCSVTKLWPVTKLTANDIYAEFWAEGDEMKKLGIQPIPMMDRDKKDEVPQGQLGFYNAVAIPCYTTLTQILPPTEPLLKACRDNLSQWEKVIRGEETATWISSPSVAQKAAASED

In this assay the target is PDE10A (Homo sapiens (Human), UniProt Q9Y233). To be noted: read-out: Inhibition of PDE10A, IC50.
In the case of “1-(2-Chloro-5-methoxy-phenyl)-4-methyl-[1,2,4]triazolo[4,3-a]quinoxaline [Example 38]”, the half-maximal inhibitory concentration (IC50) (usually the concentration that inhibits the measured activity by half) turned out to be 300 nM. Next, “1-[2-Fluoro-5-(4-phenoxy-butoxy)-phenyl]-4-methyl-[1,2,4]triazolo[4,3-a]quinoxaline [Example 42]”: above 1000 nM. Turning to “4-Methyl-1-(3-methyl-pyridin-4-yl)-[1,2,4]triazolo[4,3-a]quinoxaline [Example 39]”, the IC50 is 930 nM.

For the origin of these results see US9540379B2 (priority 2011, dated 2017).
